{"sequences": {"note": "Amino acid sequences for entries named in this document (tags omitted). A change or cut given only in a name is not applied to a line headed by its entry.", "UniProt Q63120": "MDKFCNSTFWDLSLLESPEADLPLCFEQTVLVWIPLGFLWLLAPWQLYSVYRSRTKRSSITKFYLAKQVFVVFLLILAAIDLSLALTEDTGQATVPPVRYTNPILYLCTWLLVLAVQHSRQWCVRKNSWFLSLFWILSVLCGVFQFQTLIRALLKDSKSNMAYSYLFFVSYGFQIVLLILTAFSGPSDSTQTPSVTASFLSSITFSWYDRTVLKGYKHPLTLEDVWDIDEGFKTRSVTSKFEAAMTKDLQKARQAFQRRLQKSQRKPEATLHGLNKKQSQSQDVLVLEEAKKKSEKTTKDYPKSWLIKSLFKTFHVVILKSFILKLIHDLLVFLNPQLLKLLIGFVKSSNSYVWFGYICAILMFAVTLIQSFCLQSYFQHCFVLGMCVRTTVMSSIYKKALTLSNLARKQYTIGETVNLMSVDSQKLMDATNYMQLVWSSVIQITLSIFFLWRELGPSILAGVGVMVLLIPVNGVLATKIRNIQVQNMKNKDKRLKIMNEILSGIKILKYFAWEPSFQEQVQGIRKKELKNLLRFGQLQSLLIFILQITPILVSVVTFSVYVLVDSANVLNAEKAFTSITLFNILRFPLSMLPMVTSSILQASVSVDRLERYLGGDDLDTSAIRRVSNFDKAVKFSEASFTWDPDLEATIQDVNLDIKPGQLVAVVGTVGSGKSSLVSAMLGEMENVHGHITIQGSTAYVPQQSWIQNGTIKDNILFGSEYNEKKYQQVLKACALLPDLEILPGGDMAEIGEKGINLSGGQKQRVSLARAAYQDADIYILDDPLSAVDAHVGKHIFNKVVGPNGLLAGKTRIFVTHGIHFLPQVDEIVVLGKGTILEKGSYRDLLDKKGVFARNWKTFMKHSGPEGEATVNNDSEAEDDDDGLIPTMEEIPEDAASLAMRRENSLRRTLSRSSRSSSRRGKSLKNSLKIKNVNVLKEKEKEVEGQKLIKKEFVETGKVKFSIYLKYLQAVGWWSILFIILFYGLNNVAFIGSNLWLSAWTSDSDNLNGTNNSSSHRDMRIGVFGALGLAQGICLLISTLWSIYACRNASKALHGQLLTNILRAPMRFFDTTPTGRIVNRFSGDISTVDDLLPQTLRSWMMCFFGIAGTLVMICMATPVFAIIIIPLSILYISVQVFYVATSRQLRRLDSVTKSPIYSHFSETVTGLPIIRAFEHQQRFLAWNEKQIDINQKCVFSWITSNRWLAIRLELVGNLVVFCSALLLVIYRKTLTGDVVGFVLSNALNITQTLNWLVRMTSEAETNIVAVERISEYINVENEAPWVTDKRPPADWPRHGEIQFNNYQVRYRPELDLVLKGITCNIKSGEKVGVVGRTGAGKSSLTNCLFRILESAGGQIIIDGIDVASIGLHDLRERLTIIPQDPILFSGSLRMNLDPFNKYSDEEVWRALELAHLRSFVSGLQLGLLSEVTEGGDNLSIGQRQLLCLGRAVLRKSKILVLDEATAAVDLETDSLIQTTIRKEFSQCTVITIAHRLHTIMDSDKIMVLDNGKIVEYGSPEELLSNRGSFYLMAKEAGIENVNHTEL"}, "source": "paper PMC6161027", "about": "“In Vitro Stimulation of Multidrug Resistance-Associated Protein 2 Function Is Not Reproduced In Vivo in Rats” (Pharmaceutics, 2018)", "key": {"rat Mrp2": {"molecular_target": "rat Mrp2 (Rattus norvegicus, UniProt Q63120)", "settings": "CP-I 5 µM, 15 min, result in words"}, "human MRP2": {"tested_on": "human MRP2", "settings": "result in words ref 10; cited from earlier work"}}, "data": [{"molecule": "C[C@]12CC[C@H]3[C@@H](CCC4=CC(=O)CC[C@@]43C)[C@@H]1CC[C@@H]2O", "note": "[testosterone]", "values": [{"measurement": "effect on rat Mrp2-mediated CP-I transport in vitro", "setting": "rat Mrp2", "value": "stimulated"}, {"measurement": "stimulation of CP-I transport in human MRP2 vesicles", "setting": "human MRP2", "value": "significant stimulation"}]}]}
